Test results reported in patent publication US6987127B2, “Regulation of NAD(P)H oxidase growth and transcription in melanoma cells” (Charlotte-Mecklenburg Hospital Authority, priority 2001, dated 2006).

Tests used:
[1] = test system: membrane NAD(P)H oxidase of M1619 melanoma cells; test: SOD-inhibitable lucigenin chemiluminescence (O2- generation) by 100,000 g plasma membrane fraction; format: biochemical, human; conditions: 50 μmol/L, 15 μg membrane protein, 100 μmol/L NADPH, no cytosol, 5 minutes
M1619 melanoma cells = conditions: pretreatment 15 minutes, 50 μmol/L

SMILES | Lucigenin chemiluminescence of membranes + NADPH [1] | Median fluorescence (DCFH oxidation to DCF) (M1619 melanoma cells; untreated 685) | Mean fluorescence (DCFH oxidation to DCF) (M1619 melanoma cells; untreated 754)
O=c1oc2ccccc2c(O)c1Cc1c(O)c2ccccc2oc1=O [dicumarol] | reduced | – | –
c1ccc2c(c1)[I+]c1ccccc1-2 [DPI, diphenylene iodonium] | significantly inhibited | 355 | 408
